The values that follow come from PMC10942606.

Protein sequences, listed by entry. Tags and fused reporters are not part of them.
UniProt Q1MTN9, whole entry, chain 1 of 3: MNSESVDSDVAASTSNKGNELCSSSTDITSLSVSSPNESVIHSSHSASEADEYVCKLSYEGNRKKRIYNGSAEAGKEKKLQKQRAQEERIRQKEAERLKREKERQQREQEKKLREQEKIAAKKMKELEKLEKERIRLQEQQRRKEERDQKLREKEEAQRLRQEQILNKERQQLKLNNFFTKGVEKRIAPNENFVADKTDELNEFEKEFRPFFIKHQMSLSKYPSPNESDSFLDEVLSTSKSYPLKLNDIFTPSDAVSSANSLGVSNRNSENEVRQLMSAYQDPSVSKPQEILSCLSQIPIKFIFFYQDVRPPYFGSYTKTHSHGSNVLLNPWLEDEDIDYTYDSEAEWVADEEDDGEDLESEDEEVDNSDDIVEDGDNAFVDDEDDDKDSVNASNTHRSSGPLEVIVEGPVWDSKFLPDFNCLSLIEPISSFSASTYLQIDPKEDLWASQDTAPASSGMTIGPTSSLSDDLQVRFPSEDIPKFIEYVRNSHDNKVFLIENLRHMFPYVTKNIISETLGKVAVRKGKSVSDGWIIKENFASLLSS

The target in this test is SpCAF-1 complex (Pcf1-Pcf2-Pcf3), wild type, full length (S. pombe) (UniProt Q1MTN9). The test is described as follows: SEC-SAXS. For orientation: Size exclusion chromatography separates by hydrodynamic size, large species first.

The substance “S. pombe histones H3−H4 (from UniProt P09988 1-136; P09322 1-103) (complex)” gave a stoichiometry N (H3−H4 dimer per SpCAF-1) of 1.
